Data published in patent US20260151503A1, “TARGETED NANOPARTICLE, TARGETED CELL, PREPARATION METHOD THEREFOR, AND USE THEREOF” (INSTITUTE OF PROCESS ENGINEERING, CHINESE ACADEMY OF SCIENCE, priority 2022, published 2026).

Assays:
leukemia cells = test: High-content dynamic fluorescence imaging of FnC capture from the CAR T surface; assay type: cell-based, human; settings: co-incubation of FnC-CAR T with leukemia cells; FIG. 13
Experimental: Labeling of cells: CAR T cells were labeled with red fluorescent Celltracker dye, leukemia cells were labeled with CFSE, and the ferritin cluster nano-particle formulation was labeled with Cy5-se dye in this experiment. The wavelengths of the three excitation lights were 561 nm, 488 nm, and 633 nm, respectively.
Specific experimental steps: The fluorescently labeled CAR T cells and fluorescently labeled ferritin cluster nano-particle formulation described above were prepared into FnC-CAR T according to the previously described method.

[1] = Transmission electron microscopy of ferritin cluster; assay type: physicochemical; settings: FIG. 2
Experimental: The preparation of the targeted cell of the present invention comprises the following steps: • (1) The protein was aggregated and precipitated to form a protein cluster under electrolyte or non-electrolyte conditions; • non-electrolyte conditions: Ferritin was dissolved in PBS buffer (pH 7.2-7.4) to a final concentration of 10 mg/mL. Then, absolute ethanol was added dropwise to the solution at room temperature under magnetic stirring at 1000 rpm until the solution became cloudy visible to the naked eye.
Electrolyte conditions: Ferritin was dissolved in PBS buffer (pH 7.2-7.4) to a final concentration of 10 mg/mL. Then, a saturated ammonium sulfate solution was added dropwise to the solution at room temperature under magnetic stirring at 1000 rpm until the solution became cloudy visible to the naked eye.
(2) The clusters were crosslinked in the presence of a crosslinking agent to obtain a crosslinked targeted nanoparticle. The crosslinking in the step was to directly add a 25% glutaraldehyde solution into the turbid solution in step (1) until the final concentration was 0.25-1%, or add NHS-PEG-NHS to the final concentration of about 1%. The mixture was then allowed to react for 1.5 h at room temperature with stirring at 1000 rpm. […]

FnC: full-heavy chain recombinant ferritin aggregated, precipitated and crosslinked (glutaraldehyde or NHS-PEG-NHS) into clusters
capture of FnC from the CAR T surface by leukemia cells (leukemia cells): able to take FnC off the CAR T surface
uptake of FnC by CAR T (leukemia cells): did not take up
particle size [1]: 300-500 nm
